Assay outcomes from PubChem.
Rows were chosen to be rich in hits. Some 0.73% of all compounds tested hit in one or more screens of this group.
RAD54 inh = blocks human RAD54 Holliday junction branch migration; Q92698; FAM/BHQ fluorescence; inhibition, % at 10.4 µM; 360,000 tested, 0.14% active; AID 602329;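 active = mean normalized replicate activity at least 40 and at least half of replicates scoring 40 or more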;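 note: inhibitors cause a drop in the FAM fluorescence signal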
Yeast UUG start = modulators of yeast start codon fidelity, primary screen, whole organism, S. cerevisiae, single point, plate reader; S. cerevisiae UUG-firefly luciferase reporter, luminescence/redox ratio; activity score, % at 18.7 µM; 0.13% of 350,000 active; AID 602363, 2012;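 active = replicate mean at a twofold rise or more, about +100% in these data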;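 also: firefly luciferase made from a UUG start codon reports start codon fidelity; reporter light over untreated wells divided by growth signal over untreated wells; some hits fall short of that in this replicate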
RAD52 inh = blocks human RAD52 DNA annealing; inhibition, % at 18.7 µM; recombinant RAD52 DNA annealing, FRET fluorescence; 360,000 tested, 0.46% active; AID 651710;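 active = every replicate showing at least 50% inhibition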
E-sel inducer = induces E-selectin expression in human endothelial cells; P16581; HUVEC E-selectin immunofluorescence imaging; normalized: neutral wells 0, TNF-alpha wells 100; activation, % at 7.58 µM; 260,000 tested, 0.37% active; AID 686992;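 active = mean E-selectin-positive cell signal at least 10% of the positive control, reached in at least 60% of replicates, without over 20% cell loss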
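Read-out: % PE-positive cells | Test system: HUVEC | Doses: One compound dose added by pin transfer | Buffer or medium: EGM-2 over gelatin coat | Signal: Immunofluorescence imaging | Benchmarks: TNF-alpha, DMSO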
Xi reactivation = activators of X-chromosome reactivation in mouse fibroblasts | XiGFP mouse fibroblasts, % GFP-positive cells imaging, 3 d; cells co-treated with 5-aza-dC sensitizer; scaled so ellipticine positive control = 100% | activation, % at 7.58 µM | 360,000 tested, 0.055% active;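 active = mean normalized replicate activation at least 10% and every replicate at or above 10%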
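Assay system: SV40-immortalized XiGFP fibroblast cells, line 68-5-11; buffer or medium: DMEM plus 5-aza-dC sensitizer; compound: one concentration, pinned; timing: compounds 3 days, fix/stain 15 min at room temperature; benchmarks: positive control ellipticine, 6 µM final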
RAD52 DNA ctr = counter-screen for RAD52 inhibitors: DNA binding compounds; shares compounds with RAD52 inh; AC50, µM; 1,000 tested, 8% active; Salmon sperm DNA/acridine orange FP displacement; AID 652128;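 active = fitted half-maximal concentration for signal loss at or below twice the highest dose tested, in every separate run, actives reach about 64 µM in these data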
Each line names hits and unclear results; the compound was inactive in the other large screens (follow-up assays come after a bar, where they were run).

COc1ccc(-c2cc3nc(NCCCN(C)C)n(C)c(=O)c3s2)c(C)c1	RAD52 inh 55 | RAD52 DNA ctr inactive
O=C(C[C@@H]1CC[C@@H](NC(=O)c2ccccc2)[C@H](CO)O1)NCc1ccncn1	none
C[C@@H]1CN([C@H](C)CO)C(=O)Cc2cc(NC(=O)CCCN(C)C)ccc2O[C@H]1CN(C)Cc1ccc(Oc2ccccc2)cc1	none
C[C@H](CO)N1C[C@H](C)[C@@H](CN(C)C(=O)C2CCCCC2)OCCCC[C@H](C)Oc2ccc(NC(=O)Cc3ccccc3)cc2C1=O	none
Cc1noc(C)c1NC(=O)N(C)C[C@@H]1Oc2ccc(NS(=O)(=O)c3ccc(F)cc3)cc2C(=O)N([C@H](C)CO)C[C@H]1C	none
C#CCOCCOCCOCCNc1nc(N2CCN(C(=O)[C@H](CCCCN)n3cc([C@@H](N)C(C)CC)nn3)CC2)nc(N2CCN(C(=O)[C@H](Cc3ccc(O)cc3)n3cc([C@@H](N)CC(C)C)nn3)CC2)n1 (stereo partly specified)	RAD52 inh 92 | RAD52 DNA ctr inactive
C#CCOCCOCCOCCNc1nc(N2CCN(C(=O)C([C@@H](C)O)n3cc([C@@H](N)CCCCN)nn3)CC2)nc(N2CCN(C(=O)[C@H](CCCCN)n3cc([C@@H](N)[C@H](C)CC)nn3)CC2)n1 (stereo partly specified)	RAD52 inh 72 | RAD52 DNA ctr inactive
C#CCOCCOCCOCCNc1nc(N2CCN(C(=O)[C@H](CCCCN)n3cc(CN)nn3)CC2)nc(N2CCN(C(=O)[C@H](CCC(=O)O)n3cc([C@@H](N)CCCCN)nn3)CC2)n1	RAD52 inh 61 | RAD52 DNA ctr inactive
C#CCOCCOCCOCCNc1nc(N2CCN(C(=O)Cn3cc(CCCN=C(N)N)nn3)CC2)nc(N2CCN(C(=O)[C@H](CCCCN)n3cc(CCCC)nn3)CC2)n1	RAD52 inh 51 | RAD52 DNA ctr inactive
C#CCOCCOCCOCCNc1nc(N2CCN(C(=O)C([C@@H](C)O)n3cc([C@@H](N)CCCCN)nn3)CC2)nc(N2CCN(C(=O)[C@H](CCC(=O)O)n3cc([C@@H](N)[C@H](C)CC)nn3)CC2)n1 (stereo partly specified)	none
C[C@H](CO)N1C[C@H](C)[C@H](CN(C)S(=O)(=O)c2cn(C)cn2)Oc2ccc(NC(=O)Nc3cccc4ccccc34)cc2CC1=O	none
COc1cccc(S(=O)(=O)Nc2ccc3c(c2)[C@H]2C[C@@H](CC(=O)N[C@@H](C)c4ccccc4)O[C@@H](CO)[C@H]2O3)c1	none
C#CCOCCOCCOCCNc1nc(N2CCN(C(=O)CCCCCCCCCCNC(=O)[C@H](CCCCN)n3cc(CCO)nn3)CC2)nc(N2CCN(C(=O)CCCCCCCCCCNC(=O)[C@H](CCCCN)n3cc(CCCC(=O)O)nn3)CC2)n1	RAD52 inh 52 | RAD52 DNA ctr inactive
C#CCOCCOCCOCCNc1nc(N2CCN(C(=O)[C@H](CCCN=C(N)N)n3cc(C(N)[C@@H](C)CC)nn3)CC2)nc(N2CCN(C(=O)[C@H](CCCCN)n3cc([C@@H](N)CC(N)=O)nn3)CC2)n1 (stereo partly specified)	RAD52 inh 66 (no result: E-sel inducer) | RAD52 DNA ctr inactive
C#CCOCCOCCOCCNc1nc(N2CCN(C(=O)CCCCCCCCCCNC(=O)[C@@H](CCC(=O)O)n3cc(CCCCCN)nn3)CC2)nc(N2CCN(C(=O)CCCCCCCCCCNC(=O)[C@H](CO)n3cc(CCCCCN)nn3)CC2)n1	none (no result: RAD52 inh, E-sel inducer, Xi reactivation)
C#CCOCCOCCOCCNc1nc(N2CCN(C(=O)[C@H](CCCN=C(N)N)n3cc(C(N)[C@@H](C)CC)nn3)CC2)nc(N2CCN(C(=O)[C@H](CCC(=O)O)n3cc([C@@H](N)CC(N)=O)nn3)CC2)n1 (stereo partly specified)	none
CC[C@H](C)Cc1cn([C@@H](CCCCN)C(=O)NCCCCCCCCCCC(=O)N2CCNCC2)nn1	RAD52 inh 77 | RAD52 DNA ctr inactive
NCCCCCc1cn([C@@H](CCC(=O)O)C(=O)NCCCCCCCCCCC(=O)N2CCNCC2)nn1	none
C#CCOCCOCCOCCNc1nc(N2CCN(C(=O)[C@H](CO)n3cc([C@@H](N)C(C)C)nn3)CC2)nc(N2CCN(C(=O)[C@H](CCCCN)n3cc([C@@H](N)[C@H](C)CC)nn3)CC2)n1	RAD52 inh 61 | RAD52 DNA ctr inactive
C[C@H](O)C#Cc1cnc2c(c1)C(=O)N([C@H](C)CO)C[C@H](C)[C@@H](CN(C)CC1CCCC1)O2	none
CCNC(=O)C[C@@H]1C=C[C@@H](NC(=O)C2CCOCC2)[C@H](CO)O1	none
O=C(Nc1ccc2c(c1)[C@H]1C[C@@H](CC(=O)N3CCOCC3)O[C@@H](CO)[C@H]1O2)c1ccc2c(c1)OCO2	none (no result: RAD52 inh)
O=C(C[C@@H]1C[C@@H]2c3cc(NC(=O)CC4CC4)ccc3O[C@@H]2[C@H](CO)O1)NCC(F)(F)F	none
Cc1nc(Nc2nc(CSc3nc4ccccc4[nH]3)cc(=O)[nH]2)nc2ccccc12	none (no result: RAD52 inh, E-sel inducer)
Cc1nc(Nc2nc(-c3ccccc3)cc(=O)[nH]2)nc2ccccc12	RAD52 inh 95 (no result: E-sel inducer, Xi reactivation) | RAD52 DNA ctr inactive
O=C(C1CC1)N1CCCCN2[C@@H](CO)[C@H](c3ccc(C#CC4CC4)cc3)[C@@H]2C1	none (no result: E-sel inducer, Xi reactivation)
CN1/C(=C/C=C/c2n(C)c3cc([N+](=O)[O-])c([N+](=O)[O-])cc3[n+]2C)C(C)(C)c2ccccc21	RAD52 inh 61 | RAD52 DNA ctr 38µM
CCC(=O)N1C[C@@H]2[C@H](c3ccccc31)[C@H](CO)N2Cc1ccc(F)cc1	none
CC(C)CC#Cc1ccc2c(c1)O[C@@H](CN(C)C(=O)c1cccc(F)c1)[C@H](C)CN([C@H](C)CO)S2(=O)=O	none
COc1cccc2sc(N(CCCN(C)C)C(=O)c3ccc(S(=O)(=O)N4CCc5ccccc5C4)cc3)nc12	RAD52 inh 70 | RAD52 DNA ctr inactive
CCOc1ccc2nc(N(CCCN(C)C)C(=O)c3ccc(S(=O)(=O)N4CCc5ccccc5C4)cc3)sc2c1	RAD52 inh 59 | RAD52 DNA ctr inactive
COc1cc2nc(N(CCCN(C)C)C(=O)c3ccc(S(=O)(=O)N4CCc5ccccc5C4)cc3)sc2cc1OC	none
O=C(C[C@@H]1C[C@H]2c3cc(NC(=O)c4cccnc4)ccc3O[C@H]2[C@@H](CO)O1)NCCN1CCCCC1	none (no result: Yeast UUG start)
CN(C)CCCNC(=O)C[C@H]1C[C@H](C(=O)N2CCOCC2)[C@@]2(CCC3CCCC3)c3[nH]c4cc(-c5ccco5)ccc4c3CCN2C1=O	RAD52 inh 52 | RAD52 DNA ctr inactive
O=C(C[C@H]1C[C@H](C(=O)N2CCOCC2)[C@@]2(CCC3CCCC3)c3[nH]c4cc(-c5ccco5)ccc4c3CCN2C1=O)NCCN1CCOCC1	none (no result: E-sel inducer)
